The values below come from ChEMBL document CHEMBL2417361, “Investigation of acyclic uridine amide and 5'-amido nucleoside analogues as potential inhibitors of the Plasmodium falciparum dUTPase” (Bioorg Med Chem, 2013).

This assay in a line: Selectivity index, ratio of Ki for human dUTPase to Ki for recombinant Plasmodium falciparum dUTPase.
As to `O=c1ccn(CCCNC(c2ccccc2)c2ccccc2)c(=O)[nH]1`, the Ratio Ki worked out at 2.
With `O=c1ccn([C@H]2C[C@H](O)[C@@H](CNC(c3ccccc3)(c3ccccc3)c3ccccc3)O2)c(=O)[nH]1` the figure was 46.
For the compound `O=c1ccn(CCCCNC(c2ccccc2)c2ccccc2)c(=O)[nH]1`, the Ratio Ki turned out to be 11.
With `O=c1ccn(CCCCOC(c2ccccc2)c2ccccc2)c(=O)[nH]1`, the Ratio Ki came out at 98.
On to `O=c1ccn([C@H]2C[C@H](O)[C@@H](CNC(c3ccccc3)c3ccccc3)O2)c(=O)[nH]1`, for which the Ratio Ki was > 500.
